The test system of this series is bumblebee GI tract. Description: fluorescent tracking of digested PIMs in bumblebee GI tracts. The class given is in vivo, Bombus impatiens. The procedure: FIGS. 4A-4B. Tracking of digested PIMs by fluorescent imaging of bumblebee GI tracts. […] Microparticle morphology was clearly visible and microparticles were successfully drawn into the midgut (n=3; relatively brighter background at 1 and 12 h was probably due to protein leakage during digestion).
To understand the protective properties and stability of PIMs, bees were fed PIMs loaded with a FITC-labelled protein, human serum albumin (HSA-PIMs). Fluorescent imaging confirmed almost complete extraction of PIMs out of the crop stomach by 1 hour and their stability throughout digestion for 12 hours. This versatile, scalable, low-cost detoxification strategy can act as a precautionary or remedial measure for managed pollinators when pollinating in areas of organophosphate application, to address the issue of pollinator exposures.
In vivo characterizations of PIMs. […] This is significant because OPs are often found in high quantities in pollen, which may be held in the posterior section of the ventriculus for digestion for up to 12 h or more. The degree of fluorescence was not able to be quantified because FITC fluorescence is pH dependent; the presence of microparticles would have altered stomach pH to the point where fluorescence readings would have been inaccurate.

Turning to “free FITC-HSA: FITC-labelled human serum albumin, not encapsulated”, the “GI distribution at 1 hour” value (1 hour after 30 min feeding) was “a large amount was observed in crop stomach”. In addition, the “GI distribution at 4 hours” value (4 hours) is recorded as “most of the fluorescence was located in the ventriculus”.

Values taken from US12041939B2, “Enzyme-loaded pollen-mimicking microparticles for organophosphate detoxification of insect pollinators” (priority 2020, dated 2024).
